Assay results reported in patent publication US8754089B2, “Heterocyclic compounds and their uses” (Amgen Inc., priority 2009, dated 2014).

The chains behind the UniProt entries cited, without tags or fusion partners. Where a name states a change or a piece, a line headed by the entry shows the natural chain unless it says otherwise.
UniProt O00329: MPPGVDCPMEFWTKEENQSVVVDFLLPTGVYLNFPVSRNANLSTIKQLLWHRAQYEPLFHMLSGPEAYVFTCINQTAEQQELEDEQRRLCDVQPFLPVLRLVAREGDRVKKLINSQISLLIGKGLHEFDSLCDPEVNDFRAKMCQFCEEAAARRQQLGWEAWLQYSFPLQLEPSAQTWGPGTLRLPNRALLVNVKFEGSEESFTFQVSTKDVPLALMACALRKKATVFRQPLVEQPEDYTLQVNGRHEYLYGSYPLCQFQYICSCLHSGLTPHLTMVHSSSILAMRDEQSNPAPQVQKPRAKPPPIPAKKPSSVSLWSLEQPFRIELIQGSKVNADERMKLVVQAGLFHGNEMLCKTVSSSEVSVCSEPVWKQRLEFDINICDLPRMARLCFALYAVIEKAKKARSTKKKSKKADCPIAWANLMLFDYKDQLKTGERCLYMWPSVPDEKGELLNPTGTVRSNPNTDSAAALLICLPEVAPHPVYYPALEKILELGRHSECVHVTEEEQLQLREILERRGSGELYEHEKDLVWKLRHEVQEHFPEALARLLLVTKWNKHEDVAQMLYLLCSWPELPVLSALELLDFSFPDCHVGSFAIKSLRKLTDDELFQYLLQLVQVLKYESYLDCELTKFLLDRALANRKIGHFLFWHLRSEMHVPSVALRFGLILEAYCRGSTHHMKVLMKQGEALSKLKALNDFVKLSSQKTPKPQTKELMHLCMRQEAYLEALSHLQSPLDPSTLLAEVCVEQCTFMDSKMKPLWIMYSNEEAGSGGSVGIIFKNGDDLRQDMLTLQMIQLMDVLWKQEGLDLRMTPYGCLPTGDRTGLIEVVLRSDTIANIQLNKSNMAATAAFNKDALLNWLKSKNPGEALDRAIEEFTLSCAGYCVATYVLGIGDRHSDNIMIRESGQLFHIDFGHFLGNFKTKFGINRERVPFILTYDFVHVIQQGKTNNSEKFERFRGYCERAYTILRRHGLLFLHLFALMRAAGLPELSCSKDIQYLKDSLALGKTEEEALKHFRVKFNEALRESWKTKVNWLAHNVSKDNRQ
UniProt P42338, whole entry, looked up, species assumed: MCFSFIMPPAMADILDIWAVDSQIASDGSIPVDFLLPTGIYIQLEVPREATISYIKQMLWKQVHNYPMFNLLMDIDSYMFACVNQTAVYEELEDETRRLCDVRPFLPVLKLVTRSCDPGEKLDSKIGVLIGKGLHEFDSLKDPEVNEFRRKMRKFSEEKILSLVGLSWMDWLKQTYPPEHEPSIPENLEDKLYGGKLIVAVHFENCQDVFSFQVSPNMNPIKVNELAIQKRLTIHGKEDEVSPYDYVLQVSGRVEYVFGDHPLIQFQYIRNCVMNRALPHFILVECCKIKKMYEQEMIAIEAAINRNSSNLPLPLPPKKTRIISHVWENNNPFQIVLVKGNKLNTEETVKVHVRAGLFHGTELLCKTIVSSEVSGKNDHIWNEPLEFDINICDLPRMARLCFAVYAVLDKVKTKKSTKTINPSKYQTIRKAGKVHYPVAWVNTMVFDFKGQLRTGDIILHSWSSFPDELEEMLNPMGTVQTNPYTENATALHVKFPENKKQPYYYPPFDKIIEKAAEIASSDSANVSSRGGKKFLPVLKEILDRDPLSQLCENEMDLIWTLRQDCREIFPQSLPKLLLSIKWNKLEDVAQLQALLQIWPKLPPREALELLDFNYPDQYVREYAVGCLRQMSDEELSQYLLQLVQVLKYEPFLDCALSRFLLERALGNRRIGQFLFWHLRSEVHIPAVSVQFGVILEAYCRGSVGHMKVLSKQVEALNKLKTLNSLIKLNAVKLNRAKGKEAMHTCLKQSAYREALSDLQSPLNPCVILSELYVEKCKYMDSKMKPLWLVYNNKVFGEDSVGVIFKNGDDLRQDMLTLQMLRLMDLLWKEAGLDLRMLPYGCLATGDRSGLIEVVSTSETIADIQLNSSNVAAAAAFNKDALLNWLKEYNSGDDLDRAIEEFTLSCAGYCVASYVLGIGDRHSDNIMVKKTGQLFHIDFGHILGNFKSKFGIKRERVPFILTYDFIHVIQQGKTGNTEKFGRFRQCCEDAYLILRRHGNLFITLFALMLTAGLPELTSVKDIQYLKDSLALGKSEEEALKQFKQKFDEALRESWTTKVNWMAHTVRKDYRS

Biological target: PI3Kδ (Homo sapiens (Human), UniProt O00329)
Experiment: PI3Kδ Alphascreen assay
Assay type: biochemical
Settings: not given

| SMILES | Ki |
| --- | --- |
| CC(Nc1ncnc(N)c1C#N)c1nc2ccccn2c(=O)c1-c1ccccc1 (racemic) [4-amino-6-((1-(4-oxo-3-phenyl-4H-pyrido[1,2-a]pyrimidin-2-yl)ethyl)amino)-5-pyrimidinecarbonitrile] | 15.9 nM |
| CC(Nc1ncnc2[nH]cnc12)c1nc2ccc(F)cn2c(=O)c1-c1cccc(F)c1 (racemic) [7-fluoro-3-(3-fluorophenyl)-2-(1-(9H-purin-6-ylamino)-ethyl)-4H-pyrido[1,2-a]pyrimidin-4-one] | 360 nM |
| C[C@@H](Nc1ncnc(N)c1C#N)c1nc2ccccn2c(=O)c1-c1ccccc1 [4-amino-6-(((1R)-1-(4-oxo-3-phenyl-4H-pyrido[1,2-a]pyrimidin-2-yl)ethyl)amino)-5-pyrimidinecarbonitrile] | 6320 nM |
| C[C@H](Nc1ncnc(N)c1C#N)c1[nH]c2ccc(F)cc2c(=O)c1-c1cc(F)cc(F)c1 [4-amino-6-(((1S)-1-(3-(3,5-difluorophenyl)-6-fluoro-4-oxo-1,4-dihydro-2-quinolinyl)ethyl)amino)-5-pyrimidinecarbonitrile] | 63.7 nM |
| Cc1cccc2nc(C(C)Nc3ncnc4[nH]cnc34)c(-c3ccccn3)c(=O)n12 (stereo not drawn) [6-methyl-2-(1-(9H-purin-6-ylamino)ethyl)-3-(2-pyridinyl)-4H-pyrido[1,2-a]pyrimidin-4-one] | 80.2 nM |
| C[C@@H](Nc1ncnc2[nH]cnc12)c1nc2ccc(F)cn2c(=O)c1-c1ccccn1 [7-fluoro-2-((1R)-1-(9H-purin-6-ylamino)ethyl)-3-(2-pyridinyl)-4H-pyrido[1,2-a]pyrimidin-4-one] | 21500 nM |
| C[C@H](Nc1ncnc2[nH]cnc12)c1nc2ccc(F)cn2c(=O)c1-c1ccccn1 [7-fluoro-2-((1S)-1-(9H-purin-6-ylamino)ethyl)-3-(2-pyridinyl)-4H-pyrido[1,2-a]pyrimidin-4-one] | 184 nM |
| C[C@@H](Nc1ncnc2[nH]cnc12)c1nc2ccc(F)cn2c(=O)c1-c1cccc(F)c1 [7-fluoro-3-(3-fluorophenyl)-2-((1R)-1-(9H-purin-6-ylamino)ethyl)-4H-pyrido[1,2-a]pyrimidin-4-one] | 19800 nM |

Biological target: p110β (Homo sapiens (Human), UniProt P42338)
Experiment: not given
Settings: read-out: potency on beta; cited from earlier work

| SMILES | IC50 |
| --- | --- |
| Cc1cc(C(C)Nc2ccccc2)c2nc(N3CCOCC3)cc(=O)n2c1 (stereo not drawn) [TGX-221] | 7 nM |
